Molecular target: Carbonic anhydrase 2 (Homo sapiens, UniProt P00918)

`NC(Cc1ccccc1)C(=O)[C@@H](N)C(=O)NCCOCCOCCNC(=O)c1ccc(S(N)(=O)=O)cc1` (stereo partly specified) was tested. Which Kd did it give?
Its Kd is 14 nM.
